# This is a sample that favours compounds with a hit; in the whole collection about 2.1% have one here.
# MITF TRPM1 inh: reduces MITF-dependent TRPM1 promoter luciferase signal; SK-MEL-5 TRPM1 promoter luciferase, 24 h; inhibition, % at 12.5 µM; 0.83% of 330,000 active;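 active = mean inhibition across replicates of 60% or more, whatever share of single replicates reaches that level; inconclusive = some that reach 60%, reason not given; inactive = mean inhibition across replicates below 60%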
# miR-122 sensor: inhibitors of miR-122 in Huh7 cells. AID 602342. Huh7 miR-122 Renilla luciferase sensor, 48 h; neutral wells = 0, positive control = 100. 0.3% of 340,000 active. activation (reporter increase), % at 12.5 µM;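 active = mean replicate activation score at least 90 and every replicate individually at or above 90; inconclusive = only one of the two criteria met; inactive = neither criterion met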;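 also: higher luciferase means less miR-122 activity so hits act as miR-122 inhibitors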
# Wnt bcat act: activators of Wnt/beta-catenin signaling. 1.2% of 300,000 active. Wnt/beta-catenin reporter cell assay, activator, plate reader. AID 743398. activation, % at 9.35 µM; in the data active = activation above about 30%, passing the limit was not always enough; inconclusive = no clear call, values can overlap the other calls;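 also: 0% = neutral control wells and 100% = positive control wells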
# PGC1a acetyl inh: modulators of PGC1a acetylation | U2OS PGC1a acetylation, AlphaScreen anti-acetyl-lysine; with virally co-expressed GCN5 acetyltransferase | inhibition, % at 15.6 µM | 0.17% of 350,000 active | AID 651687;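 active = every replicate shows inhibition of at least 40%; inconclusive = mean inhibition at least 40% but some replicate below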;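 also: 0% = neutral control wells and 100% = positive control wells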
# MITF act: increases MITF-driven TRPM1 promoter luciferase signal. SK-MEL-5 TRPM1-promoter luciferase, 24 h; % of positive control, neutral wells = 0. activation, % at 12.5 µM. 0.75% of 300,000 active. AID 588334;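 active = mean activation of at least 80% with every replicate also reaching 80%; inconclusive = mean reaches 80% but some replicate falls short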;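 also: 0% = neutral control wells and 100% = parthenolide positive control wells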
# Yeast UUG start-1: yeast start codon fidelity modulation | S. cerevisiae UUG-firefly luciferase reporter, luminescence/redox ratio | activity score, % at 18.7 µM | 350,000 tested, 0.13% active;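 active = replicate mean at a twofold rise or more, about +100% in these data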;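 also: firefly luciferase made from a UUG start codon reports start codon fidelity; reporter light over untreated wells divided by growth signal over untreated wells; some hits fall short of that in this replicate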
# Yeast UUG start-2: yeast start codon fidelity modulation. shares compounds with Yeast UUG start-1. S. cerevisiae UUG-start firefly luciferase, luminescence, 4 h; 100% means double the DMSO signal. activation, % at 38 µM. 540 tested, under 10 active. AID 652061;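 active = signal increase whose fitted curve reaches an absolute level of 40 at a concentration under 10 µM; inactive = activity opposite to the expected increase, or the rest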
# C2C12 COX5a inh: reduces COX5a expression driven by PGC-1a in C2C12 myotubes. shares compounds with PGC1a acetyl inh. C2C12 myotubes PGC-1a adenovirus, COX5a qPCR. maximal activity, %. 45 tested, under 10 active. AID 743461;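 active = fitted dose curve reaching 40% activity at or below the highest valid dose tested; inconclusive = flat fit between 30% and 70%, or an unusable fit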
# AID743468: change in PGC-1a target gene PDK4 expression, dose response, C2C12 myotubes, RT-qPCR, cherry-pick; shares compounds with PGC1a acetyl inh; PGC-1a adenovirus, PDK4 mRNA qPCR; PDK4 expression increase, % at 19.5 µM; 45 tested, under 10 active; AID 743468;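 active = fitted curve reaching a 40% PDK4 expression rise at or below the top valid tested dose; inconclusive = no clear call, values can overlap the other calls; inactive = the rest, including shifts the wrong way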
# * hit, by the source's call; ? = inconclusive; / = no result; [ ] = dose if it differs, or a comment.
SMILES,MITF TRPM1 inh,miR-122 sensor,Wnt bcat act,PGC1a acetyl inh,MITF act,Yeast UUG start-1,others
COC(=O)C1=C(c2ccc(Cl)c(C(F)(F)F)c2)C[C@@H]2CC[C@H]1N2C(=O)NCc1ccc2c(c1)OCO2,2,/,57*,/,0,-20,
O=C(Cc1ccccn1)N1CCCCN2[C@H](CO)[C@H](c3ccc(-c4ccccc4F)cc3)[C@@H]2C1,/,8[16.7 µM],/,15,/,-5,
COC1C(C)OC(OC2CC(C)(O)Cc3cc4c(c(O)c32)C(=O)c2c(O)cc3c(c2C4=O)OC2OC3(C)C(O)C(N(C)C)C2O)C(OC)C1(C)OC (configuration not stated),64*,/,-10,/,-63,/,
COC(=O)[C@H]1[C@H](CO)[C@H]2Cn3c(ccc(C4=CCCCC4)c3=O)[C@@H]1N2C(=O)Cc1ccccn1,/,7[16.7 µM],/,/,/,/,
COc1ccc(C#Cc2ccc([C@@H]3[C@@H](CO)N4CCCCN(C(=O)Cc5ccccc5)C[C@@H]34)cc2)cc1,/,-16[16.7 µM],/,4,/,5,
CCOC(=O)[C@@]1(C#N)[C@@H]2C=CC(C(N)=O)=CN2[C@@H](C(N)=O)[C@@H]1c1cccc(Cl)c1,10,17,-1,10,-10,0,
CCOC(=O)[C@]1(C#N)[C@@H]2C=CC(C(N)=O)=CN2[C@@H](C(N)=O)[C@@H]1c1ccc(F)cc1,-7,/,-1,88*,12,/,
c1ccc2c(c1)[IH]c1ccccc1-2,88*,13,-2,31,-87,151*,
c1ccc2c(c1)-c1cccc3cccc-2c13,-11,-8,-1,-2,15,-11,
O=C(Cc1ccccn1)N1CCCCN2[C@H](CO)[C@H](c3ccc(C#Cc4ccccc4)cc3)[C@@H]2C1,/,-8[16.7 µM],/,-3,/,11,
CCOC(=O)Cn1cc([N+](=O)[O-])nc1[N+](=O)[O-],65*,-2,/,-9,-66,/,
CCC1(OC(=O)CN)C(=O)OCc2c1cc1n(c2=O)Cc2cc3ccccc3nc2-1 (configuration not stated),80*,-1,/,?,-79,-5,
O=C(Cc1ccccn1)N1CCCCN2[C@@H](CO)[C@H](c3ccc(Br)cc3)[C@@H]2C1,/,8[16.7 µM],/,5,/,-6,
COc1ccc(C#Cc2ccc([C@H]3[C@@H](CO)N4CCCCN(C(=O)Cc5cccnc5)C[C@@H]34)cc2)cc1,/,-6[16.7 µM],/,5,/,13,
Nc1ccccc1C(=O)OCCc1ccccc1,-83,3,68*,7,85*,-12,
CCCN1[C@@H]2c3ccc(-c4ccc(OC)cc4)c(=O)n3C[C@H]1[C@H](CO)[C@H]2C(=O)OC,/,2[16.7 µM],/,/,/,/,
Nc1ccc(N=Nc2ccccc2)cc1,-31,/,16,-11,35,/,
Cc1cc(N=Nc2ccccc2C)ccc1N,-29,0,55*,-2,35,-18,
COc1ccc(CC2(CCc3ccncc3)C(=O)NC(=O)NC2=O)cc1OC,2,-10,37*,2,0,-4,
CC(C)Oc1ccc(CC2(CCc3ccncc3)C(=O)NC(=O)NC2=O)cc1,-2,/,-4,-11,/,/,

# An excerpt from above in order of formula weight, highest first:
SMILES,MITF TRPM1 inh,miR-122 sensor,Wnt bcat act,PGC1a acetyl inh,MITF act,Yeast UUG start-1,others
COc1ccc(C#Cc2ccc([C@H]3[C@@H](CO)N4CCCCN(C(=O)Cc5cccnc5)C[C@@H]34)cc2)cc1,/,-6[16.7 µM],/,5,/,13,
CCC1(OC(=O)CN)C(=O)OCc2c1cc1n(c2=O)Cc2cc3ccccc3nc2-1 (configuration not stated),80*,-1,/,?,-79,-5,
COc1ccc(CC2(CCc3ccncc3)C(=O)NC(=O)NC2=O)cc1OC,2,-10,37*,2,0,-4,
CC(C)Oc1ccc(CC2(CCc3ccncc3)C(=O)NC(=O)NC2=O)cc1,-2,/,-4,-11,/,/,
CCOC(=O)Cn1cc([N+](=O)[O-])nc1[N+](=O)[O-],65*,-2,/,-9,-66,/,

# Other compounds follow:
SMILES,MITF TRPM1 inh,miR-122 sensor,Wnt bcat act,PGC1a acetyl inh,MITF act,Yeast UUG start-1,others
N#Cc1cccc(-c2ccc([C@H]3[C@H](CO)N4CCCCN(C(=O)Cc5ccccc5)C[C@@H]34)cc2)c1,/,-14[16.7 µM],/,-4,/,1,
COc1ccc(CN2C(=O)NC(=O)/C(=C\c3ccco3)C2=O)cc1,13,-3,-13,6,-10,3,
CC(C)N1C(=O)/C(=C/C=C/c2ccco2)C(=O)N(Cc2ccco2)C1=O,71*,1,12,-1,-72,-32,
O=C1NC(=O)N(Cc2ccccc2)C(=O)/C1=C/C=C/c1ccco1,88*,/,9,/,-88,/,
COC(=O)[C@H]1[C@H](CO)[C@H]2Cn3c(cccc3=O)[C@@H]1N2C(=O)C1CCC1,/,0[16.7 µM],/,/,/,-2,
O=C(Cc1ccccn1)N1CCCCN2[C@H](CO)[C@H](c3ccc(Br)cc3)[C@H]2C1,/,2[16.7 µM],/,8,/,-3,
CC(O)C1C=CC=CC(=O)OC2CC3OC4C5OC5(C)CCC4(COC(=O)C4OC4(C)C(O)CO1)C2(C)C31CO1 (configuration not stated),70*,/,-25,/,-70,/,
CC(=O)OC1C(=O)OCC23CCC4(C)OC4C2OC2CC(OC(=O)C=CC=CC(=O)OCCC1C)C3(C)C21CO1 (configuration not stated),83*,/,1,/,-82,/,
COc1ccc(C#Cc2ccc([C@@H]3[C@@H](CO)N4CCCCN(C(=O)Cc5ccncc5)C[C@@H]34)cc2)cc1,/,-6[16.7 µM],/,11,/,-2,
COC(=O)[C@@H]1[C@@H](CO)[C@@H]2Cn3c(ccc(C4=CCCC4)c3=O)[C@H]1N2S(=O)(=O)c1cn(C)cn1,/,8[16.7 µM],/,/,/,/,
C=C(C)CSc1nnc([C@@H](N)Cc2c[nH]c3ccccc23)o1,3,-6,/,/,-1,-6,
Cc1[nH]nc2ccc(-c3cncc(OC[C@@H](N)Cc4c[nH]c5ccccc45)c3)cc12,91*,/,/,/,-89,-22,
CCC(=O)N1[C@@H]2c3ccc(-c4cccc(F)c4)c(=O)n3C[C@H]1[C@H](CO)[C@H]2C(=O)OC,/,0[16.7 µM],/,/,/,/,
O=C(Cc1cccnc1)N1CCCCN2[C@H](CO)[C@H](c3ccc(C#CC4CCCC4)cc3)[C@H]2C1,/,7[16.7 µM],/,-6,/,4,
CC[n+]1c(/C=C/C=C/c2ccc(N(C)C)cc2)sc2ccccc21,71*,-4,-17,20,/,100*,Yeast UUG start-2=1
COc1ccc(-c2ccc([C@H]3[C@@H](CO)N4CCCCN(C(=O)Cc5ccncc5)C[C@H]34)cc2)cc1,/,-4[16.7 µM],/,-8,/,-3,
O=C(c1ccccc1)c1cn(CC(=O)N2CCOCC2)c2ccccc12,6,-4,/,-7,0,2,Yeast UUG start-2=-6
N#Cc1cccc(-c2ccc([C@H]3[C@H](CO)N4CCCCN(C(=O)Cc5cccnc5)C[C@@H]34)cc2)c1,/,-5[16.7 µM],/,-2,/,4,
CCn1nc(/C=C/c2ccccc2)nc2c(=O)n(C)c(=O)nc1-2,104*,-4,-2,69*,-104,/,C2C12 COX5a inh=-56;AID743468=-55
COC(=O)[C@@H]1[C@@H](CO)[C@@H]2Cn3c(ccc(-c4ccncc4)c3=O)[C@H]1N2S(=O)(=O)c1ccccc1F,/,8[16.7 µM],/,/,/,/,
